Measurements published in PMC3765993, “The duration of sleep promoting efficacy by dual orexin receptor antagonists is dependent upon receptor occupancy threshold” (BMC Neuroscience, 2013).

Chains of the proteins cited; added tags and fusions are not shown.
UniProt O43614, whole entry: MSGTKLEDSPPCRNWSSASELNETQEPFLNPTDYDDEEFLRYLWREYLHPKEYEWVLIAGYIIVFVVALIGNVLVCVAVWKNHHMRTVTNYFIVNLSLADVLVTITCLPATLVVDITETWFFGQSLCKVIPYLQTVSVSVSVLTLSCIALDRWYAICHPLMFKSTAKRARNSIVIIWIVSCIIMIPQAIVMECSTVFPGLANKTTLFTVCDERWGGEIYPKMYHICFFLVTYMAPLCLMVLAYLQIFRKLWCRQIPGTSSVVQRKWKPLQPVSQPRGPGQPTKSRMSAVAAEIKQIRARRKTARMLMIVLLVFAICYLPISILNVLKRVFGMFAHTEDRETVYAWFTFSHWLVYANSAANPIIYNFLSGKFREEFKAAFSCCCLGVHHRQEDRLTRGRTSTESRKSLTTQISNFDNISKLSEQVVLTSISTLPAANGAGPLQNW

Experiments:
[1] = target: Orexin 2 receptor (Homo sapiens, UniProt O43614); test: Orexin 2 receptor binding kinetics
[2] = test system: rhesus monkeys; settings: 30 mg/kg, active-phase dosing, quantified over 2 h; cited from earlier work
[3] = test system: rhesus monkeys; test: Monkey Delayed Match to Sample (DMS) task; settings: 30 mg/kg p.o., versus vehicle
[4] = rhesus monkeys, 30 mg/kg p.o.
[5] = test system: rats; test: Rat telemetry polysomnography (time in active wake and sleep stages); assay type: in vivo; settings: 30 mg/kg p.o., dosed mid-active phase
Procedure: The mean time spent in sleep stages was determined in radio-telemetry-implanted mice, rats, dogs, and rhesus monkeys as first described by Renger and colleagues and subsequently by Winrow and colleagues with minor modifications. For baseline studies, recordings were taken continuously from unperturbed mice, rats, dogs, and monkeys for 6, 6, 10, or 5 days, respectively, and the mean time spent in all sleep stages in 30-min intervals were averaged and plotted onto a single 24-h period (Figure 1). Almorexant is a DORA [43] that was previously in clinical development for the treatment of insomnia. The clinical development program for almorexant was terminated in early 2011. […] In all cases, mean time in active wake, quiet wake, SWS, and REM sleep was determined for each 30-min interval for 3 days of each condition and averaged onto a single 24-h period. […] Statistical differences in mean time spent in active wake, quiet wake, SWS, and REM sleep between vehicle- and compound-treated groups at 30-min time points were determined by a linear mixed-effects model applied t-test.

[6] = test system: rhesus monkeys; test: Monkey Serial Choice Reaction Time (SCRT) task; settings: 30 mg/kg p.o., versus vehicle
[7] = test system: rhesus monkeys; settings: sleep-promoting doses; cited from earlier work

SMILES: C[C@@H]1CC[C@@H](COc2ccc(F)cn2)CN1C(=O)c1cc(F)ccc1-c1ncccn1
- KOFF (dissociation constant) [1]: 0.01878 min⁻¹
- KON (association constant) [1]: 9.19e+06 mol⁻¹ min⁻¹
- T1/2 OFF (half-life off-rates) [1]: 37.8 min
- T1/2 ON (binding half-life) ([1]; almorexant applied 3-fold above its Kd (value an underestimate)): 24.7 min
- Kd ([1]; binding constant): 0.834 nM
- Attenuation of active wake relative to vehicle [2]: 40.1 min
- Next-day recognition memory (DMS), 14 h after dosing [3]: no attenuation of in performance was observed
- Cmax ([4]; read-out: Cmax (plasma)): 134 nM
- Plasma level 17 h after treatment (three hours after DMS task) [4]: 61 nM
- Time of plasma Cmax [4]: 2 h
- Duration of active wake attenuation following treatment [5]: up to 8 h
- Duration of increase in delta and REM sleep following treatment [5]: up to 6 h
- Next-day attention (SCRT, correct responses to shortest cues), 16 h after dosing [6]: not observed
- Cognitive assessment in DMS and SCRT tasks within 2 h following treatment [7]: no impairment
